## Measured affinities in a library of Ab-14 light chain variants

The target is the same throughout: PDVDLGDISGINAS, from the HR2 region of SARS-CoV-2 spike.

Parent scFv Ab-14: VH joined to VL by three GGGGS repeats. Changes lie in the light chain CDRs alone.
VH: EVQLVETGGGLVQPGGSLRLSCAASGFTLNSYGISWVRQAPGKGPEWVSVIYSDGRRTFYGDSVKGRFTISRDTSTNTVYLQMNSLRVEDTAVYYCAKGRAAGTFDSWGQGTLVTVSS
VL: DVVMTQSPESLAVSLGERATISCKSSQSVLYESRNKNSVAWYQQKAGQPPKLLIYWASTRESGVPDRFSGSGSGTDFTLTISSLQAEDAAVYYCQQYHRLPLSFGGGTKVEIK

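The parent was found by panning a naive human phage display library on the peptide. Designed CDR sequences, proposed from the first random library and measured here. Their group label is 14L_GP_HC (GP: Gaussian process model; HC: hill climbing; a sequence that several methods proposed may carry one label only). The assay is AlphaSeq: two haploid yeast populations carry antibody and antigen on their surface. After mating in shaken culture at 30 °C for 16 h, diploids were selected and their barcode pairs sequenced. Scores were corrected for input abundance and mapped to Kd with protein pairs of known affinity run in the same pool. There are six technical replicates.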

Positions count from residue 1 of the parent VL; V29T puts T in place of V.
Scale: log10 of Kd in nM, estimated from mating counts; low values are strong binders.
A mean of the replicates is given; it leaves out those without a signal.
"ND" means that the variant was in the library but no mating with the target was seen in that replicate; the authors take this as a sign of poor binding, and no number exists.
Nonspecific signal, from three strains lacking the peptide, appeared in 4% of pairings of all light chain designs, centred on 2.64 (5% of these signals below 1.59); values are not corrected for it. For each scFv, signals with the empty controls are counted beside the result, with their mean in brackets.

changes,log10 Kd (nM) by replicate,mean log10 Kd (nM),control signals
V29T+W56H+S62Q,0.49 / 0.66 / 0.69 / 0.58 / 0.72 / 0.62,0.63,1 of 18 (2.70)
K24H+Q27G+L30A+W56N,0.69 / 0.62 / 0.46 / 0.51 / 0.55 / 0.67,0.58,1 of 18 (3.23)
S25Q+Q27P+Y31Q+W56D,0.46 / 0.02 / -0.32 / -0.37 / -0.37 / 0.10,-0.08,1 of 18 (2.37)
S26G+S28G+N37W+W56G,1.87 / 1.36 / 1.36 / 1.36 / 1.28 / 1.51,1.46,0 of 18
S25E+V29W+L30W+W56G,0.51 / 0.17 / 0.05 / -0.05 / 0.27 / 0.32,0.21,1 of 18 (3.15)
Q27I+V29Y+R34M+W56G+A57G,0.00 / -0.28 / -0.40 / -0.23 / -0.08 / -0.20,-0.20,1 of 18 (2.86)
S25L+S26R+Q27M+V29T+W56E,0.01 / -0.04 / 0.00 / -0.29 / -0.29 / 0.01,-0.10,0 of 18
S25M+S26E+Q27I+S28G+W56G+T59V,0.83 / 0.55 / 0.44 / 0.41 / 0.48 / 0.65,0.56,0 of 18
S25L+V29E+N35V+W56G,0.10 / -0.01 / -0.10 / -0.05 / 0.25 / 0.10,0.05,2 of 18 (3.05)
S25W+S26L+K36F+W56N+S62D,0.00 / 0.02 / -0.08 / -0.16 / -0.30 / 0.26,-0.04,0 of 18
S25L+S26E+V29I+L30C+W56N,0.32 / 0.35 / 0.17 / 0.26 / 0.34 / 0.35,0.30,3 of 18 (2.37)
S25Q+V29F+K36V+W56G+E61D,-0.16 / -0.29 / -0.29 / -0.18 / -0.38 / -0.10,-0.23,2 of 18 (2.64)
S25A+L30K+Y31F+W56D,0.58 / 0.47 / 0.52 / 0.11 / 0.17 / 0.14,0.33,0 of 18
S26E+V29Q+L30E+W56N+S62D,0.53 / 1.15 / 1.19 / 0.54 / 0.87 / 0.91,0.86,1 of 18 (2.48)
K24H+Q27P+V29G+L30A+W56N,0.07 / -0.01 / 0.43 / -0.21 / -0.24 / 0.23,0.05,0 of 18
S25F+Q27D+Y31L+N35T+K36D+S38R+W56N,-0.25 / -0.15 / -0.53 / -0.35 / -0.19 / 0.19,-0.21,2 of 18 (2.93)
S25F+S28W+V29M+N35T+W56N,0.27 / 0.27 / 0.14 / 0.27 / -0.02 / 0.07,0.17,0 of 18
K24H+S25L+Q27D+W56N+S103V,0.19 / -0.03 / -0.06 / -0.25 / -0.12 / 0.12,-0.03,2 of 18 (3.22)
S25V+V29F+N35W+W56G+T59Q,0.63 / 0.70 / 0.83 / 0.96 / 0.77 / 1.13,0.84,1 of 18 (2.09)
S26Q+V29Q+K36F+W56H,0.59 / 0.84 / 1.03 / 0.77 / 1.34 / 1.25,0.97,1 of 18 (1.66)
V29W+W56G+S62L,0.26 / 0.60 / 0.32 / 0.09 / 0.19 / 0.38,0.31,1 of 18 (2.78)
S25L+S26R+V29T+K36P+W56R,0.37 / 0.31 / 0.12 / 0.03 / 0.21 / 0.31,0.22,2 of 18 (2.87)
S26L+N35M+W56H+S62D,ND / 1.52 / ND / 1.21 / 2.48 / ND,1.74,0 of 18
S25F+W56M+T59Y,1.56 / 1.74 / 1.59 / 1.39 / 1.67 / 1.82,1.63,1 of 18 (2.37)
S25F+N35T+W56N+A57G+R99Q,-0.09 / -0.12 / -0.11 / -0.39 / -0.21 / -0.06,-0.16,3 of 18 (2.37)
S25N+L30K+Y31F+W56D,0.26 / 0.27 / -0.09 / 0.22 / 0.11 / 0.33,0.18,0 of 18
Q27I+V29Y+Y31G+K36E+W56N+S62Q,0.33 / 0.60 / 0.35 / 0.35 / 0.44 / 0.53,0.43,1 of 18 (2.53)
Y31F+W56D+S62Q,0.72 / 0.38 / 0.35 / 0.24 / 0.21 / 0.48,0.40,1 of 18 (2.24)
S25M+S26L+W56H+S62D+Q96D,0.44 / 0.40 / 0.44 / 0.40 / 0.64 / 0.61,0.49,1 of 18 (2.35)
Q27I+V29F+N35M+W56E,0.11 / 0.14 / -0.38 / -0.50 / -0.03 / -0.17,-0.14,0 of 18
N35D+W56H+S62D,0.72 / 0.55 / 0.60 / 1.14 / 0.85 / 0.84,0.78,0 of 18
Q27I+V29Y+R34E+N37A+W56E+T59Q,0.76 / 0.60 / 0.45 / 0.71 / 0.47 / 0.72,0.62,0 of 18
S25V+S28A+V29K+W56D,-0.29 / -0.50 / -0.61 / -0.94 / -0.80 / -0.73,-0.64,1 of 18 (1.91)
V29D+K36V+W56G+E61D,0.35 / 0.61 / 0.71 / 0.21 / 0.47 / -0.14,0.37,0 of 18
S25L+S26R+V29Q+W56Q,0.21 / -0.21 / 0.01 / 0.16 / -0.35 / 0.27,0.01,1 of 18 (2.90)

3 of these entries, quoted again:

{"changes": "S26E+V29Q+L30E+W56N+S62D", "log10 Kd (nM) by replicate": "0.53 / 1.15 / 1.19 / 0.54 / 0.87 / 0.91", "mean log10 Kd (nM)": "0.86", "control signals": "1 of 18 (2.48)"}
{"changes": "S26G+S28G+N37W+W56G", "log10 Kd (nM) by replicate": "1.87 / 1.36 / 1.36 / 1.36 / 1.28 / 1.51", "mean log10 Kd (nM)": "1.46", "control signals": "0 of 18"}
{"changes": "S25E+V29W+L30W+W56G", "log10 Kd (nM) by replicate": "0.51 / 0.17 / 0.05 / -0.05 / 0.27 / 0.32", "mean log10 Kd (nM)": "0.21", "control signals": "1 of 18 (3.15)"}

The authors' rule: three or more of the six replicates give a measured affinity, fewer mean a poor binder.
Values of this round are not directly comparable with the first-round values of the same sequences.
The parent sequence was in this pool as ten entries: three were never detected, three once, and four in most replicates, with averages from 0.34 to 2.37.

Source: Li et al. 2023 (doi:10.1038/s41467-023-39022-2), MIT Lincoln Laboratory and A-Alpha Bio; data file from the FLAb repository.